Values of other authors in patent US20260373185A1, “METHODS FOR SEQUENTIALLY ADMINISTERING TAS-102 AND BCL-2 INHIBITOR FOR CANCER TREATMENT” (Health Research, Inc., priority 2023, published 2026).

Molecular target: BCL-2
Settings: cell-free assays

Ki: ≤ 1 nM
Structure (SMILES): CC1(C)CCC(c2ccc(Cl)cc2)=C(CN2CCN(c3ccc(C(=O)NS(=O)(=O)c4ccc(N[C@H](CCN5CCOCC5)CSc5ccccc5)c(S(=O)(=O)C(F)(F)F)c4)cc3)CC2)C1 [Navitoclax]
